Data published in patent publication US20040176285A1, “Tip39 polypeptides” (priority 2001, published 2004).

Assays:
endogenous PTH1R = target: T1, endogenous PTH1R (Homo sapiens, UniProt Q03431); assay: Ligand-stimulated cAMP accumulation in SaOS-2 cells; format: cell-based; conditions: mean±SE
T1 construct: SaOS-2 cells expressing the wild-type PTH1R endogenously; endogenous in cells; host or cells: SaOS-2 human osteosarcoma cells
T1 sequence (Q03431 27-593): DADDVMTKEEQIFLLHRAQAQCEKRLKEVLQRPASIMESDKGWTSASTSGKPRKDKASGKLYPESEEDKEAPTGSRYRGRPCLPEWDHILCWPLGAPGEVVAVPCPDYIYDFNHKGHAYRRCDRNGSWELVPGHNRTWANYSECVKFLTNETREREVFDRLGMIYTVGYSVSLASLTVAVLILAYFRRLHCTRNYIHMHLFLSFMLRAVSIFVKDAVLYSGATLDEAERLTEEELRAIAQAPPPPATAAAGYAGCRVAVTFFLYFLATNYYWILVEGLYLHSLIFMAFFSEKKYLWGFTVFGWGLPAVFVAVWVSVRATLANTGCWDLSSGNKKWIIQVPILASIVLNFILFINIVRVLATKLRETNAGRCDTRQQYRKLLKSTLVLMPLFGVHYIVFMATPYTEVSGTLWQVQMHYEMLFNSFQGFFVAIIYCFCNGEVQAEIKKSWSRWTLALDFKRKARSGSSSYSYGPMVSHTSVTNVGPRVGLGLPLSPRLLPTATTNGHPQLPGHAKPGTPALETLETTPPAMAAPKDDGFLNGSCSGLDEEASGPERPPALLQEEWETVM
Protocol: (§1) DMEM, Trypsin/EDTA, and penicillin G/streptomycin and horse serum were from Gibco/BRL, Life Technologies, Gaithersburg, Md. LLC-PK, expressing the recombinant human PTH1R (HKrk-B7 cells) and SaOS-2 cells expressing the wild-type PTH1R endogenously were cultured in DMEM supplemented with 10% heat-inactivated fetal bovine serum, 100 U/ml penicillin, 100 μg/ml streptomycin, as previously described (Gardella, T. J., et al., J. Biol. Chem. 271:19888-19893 (1996); Fukayama, S., et al., Endocrinology 134:1851-1858 (1994)); both cell lines were maintained in a humidified atmosphere containing 95% air and 5% CO2. After seeding, medium was replaced daily, until cells were used for radioligand binding or cAMP accumulation assays.
(§2) Na^125I (specific activity: 2,000 Ci/mmol) was purchased from DuPont/NEN, Boston, Mass. Fetal bovine serum, 3-isobutyl-1-methyl-xanthine (IBMX), and BSA were from Sigma, St. Louis, Mo., and trifluoroacetic acid (TFA) was from Pierce, Rockford, Ill. […] The entire lysate was counted for γ-irradiation. Specific binding was determined after subtracting radioactivity bound in the presence of maximal concentrations of unlabeled competing peptide (10^−6 M). […] Data were analyzed and graphically illustrated using the graph-pad prism software package. […]

PTH1R = target: T2, PTH1R (Homo sapiens, UniProt Q03431); assay: Ligand-stimulated cAMP accumulation in HKrk-B7 cells; format: cell-based; design: expressed in transfected cells; conditions: maximal cAMP accumulation; mean±SE
T2 sequence (Q03431 27-593): T1 sequence (Q03431 27-593)
Protocol: as §1, §2

EC50 (endogenous PTH1R; cAMP accumulation): 0.3 ± 0.12 nM
SaOS-2 Maxobs (endogenous PTH1R; maximal cAMP accumulation): 32 ± 5 pmol/48-well
HKrk-B7 Maxobs (PTH1R): 42 ± 7 pmol/48-well
SMILES: CC[C@H](C)[C@H](NC(=O)[C@H](CCC(=O)O)NC(=O)[C@H](CO)NC(=O)[C@@H](NC(=O)[C@@H](N)CO)C(C)C)C(=O)N[C@@H](CCC(N)=O)C(=O)N[C@@H](CC(C)C)C(=O)N[C@@H](CCSC)C(=O)N[C@@H](Cc1c[nH]cn1)C(=O)N[C@@H](CC(N)=O)C(=O)N[C@@H](CC(C)C)C(=O)NCC(=O)N[C@@H](CCCCN)C(=O)N[C@@H](Cc1c[nH]cn1)C(=O)N[C@@H](CC(C)C)C(=O)N[C@@H](CC(N)=O)C(=O)N[C@@H](CO)C(=O)N[C@@H](CCSC)C(=O)N[C@@H](CCC(=O)O)C(=O)N[C@@H](CCCNC(=N)N)C(=O)N[C@H](C(=O)N[C@@H](CCC(=O)O)C(=O)N[C@@H](Cc1c[nH]c2ccccc12)C(=O)N[C@@H](CC(C)C)C(=O)N[C@@H](CCCNC(=N)N)C(=O)N[C@@H](CCCCN)C(=O)N[C@@H](CCCCN)C(=O)N[C@@H](CC(C)C)C(=O)N[C@@H](CCC(N)=O)C(=O)N[C@@H](CC(=O)O)C(=O)N[C@H](C(=O)N[C@@H](Cc1c[nH]cn1)C(=O)N[C@@H](CC(N)=O)C(=O)N[C@@H](Cc1ccc(O)cc1)C(N)=O)C(C)C)C(C)C [[Tyr^34]PTH(1-34), [Tyr^34] human PTH(1-34)amide]
